# Experimental data taken from US8754031B2, “Use of prolactin receptor antagonists in combination with an agent that inactivates the HER2/neu signaling pathway” (Oncolix, Inc., priority 2004, dated 2014).
# What was measured:
# T-47D cells = experiment: Cell proliferation, ViaCount reagent and Guava PCA cytometer (viable cells); format: cell-based, human; conditions: 24 hours of treatment, G129R 1 μg/ml, HERCEPTIN 20 μg/ml (FIG. 3)
# Protocol: FIG. 3. […] The y-axis represents percent viable cells after each treatment.
# This assay permits the determination of the number of total and viable cells in cultures. Cell proliferation was determined as a measure of the number of viable cells after 24 hours of treatment (FIG. 3).
# [1] = system: Stat5a/b phosphorylation in T-47D cells; experiment: Inhibition of phosphorylation of Stat5a/b, Western blot; format: cell-based, human; conditions: 48 hours, 10 μg, in the presence of hPRL 100 ng/ml (FIG. 6)
# Protocol: FIG. 6. […] T-47D cells were cultured overnight at 60% confluency and were maintained in phenol red-free and serum-free RPMI-1640 for 72 hours before stimulation. […] Lane A is the control cells that are untreated. […] Activation of Stat5 was analyzed by WB with anti-phospho-specific antibodies in 50 μg protein extracts.
substance,measurement,setting,value
HERCEPTIN® (trastuzamab): humanized monoclonal antibody directed to the HER2 ectodomain (Genentech) [reference compound],decrease in proliferative ability / cell number compared to untreated control cells,T-47D cells,54%
same,inhibition of Stat5a/b phosphorylation,[1],but not
